# Compound activity deposited in PubChem BioAssay by National Center for Advancing Translational Sciences (NCATS).
# Most compounds without a hit are left out; they make up all but 13% or so of the library.
# ALDH1A1 block = inhibitors of human aldehyde dehydrogenase 1A1 | P00352 | Purified ALDH1A1, NADH fluorescence, propionaldehyde substrate | Potency, µM (series often up to 75.3 µM), for the others: at the top dose activity, negative = inhibition, most hits filed as inhibitors | 7.3% of 220,000 active; active = well fitted inhibition curve with a large enough effect, not every such curve was filed as active; inconclusive = small, poorly fitted or top-dose-only effect, or another doubt; inactive = no such curve, though single readings can be large or run the other way;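 note: potency is the fitted concentration of half-maximal effect; plate controls were no enzyme wells and a reference inhibitor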
# Sfp inh = blocks B. subtilis Sfp PPTase activity; 310,000 tested, 3.5% active; AID 1490; Biochemical Sfp PPTase activity, qHTS; Potency, µM, for the others: max response, negative = inhibition, usual class: inhibitors; active = well fitted inhibition curve with a large enough effect; inconclusive = small, poorly fitted or top-dose-only effect, or another doubt; inactive = no such curve, though single readings can be large or run the other way;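 also: the enzyme is Sfp with the accession as filed and its product quenches rhodamine fluorescence; potency is read from the fitted curve at half-maximal effect; 0% = enzyme reaction without inhibitor and -100% = no enzyme wells; top concentration of the series not given in the record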
#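 Compounds were incubated with enzyme (final 15 nM) for 15 min at room temperature before substrate addition started the reaction. Fluorescence at 525 nm excitation, 598 nm emission was recorded immediately and after 30 minutes.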
# G9a block = inhibitors of human histone lysine methyltransferase G9a. G9a H3K9 monomethylation, AlphaScreen, 2 h. Potency, µM (titrated, usually from 102 µM), for the others: at the top dose activity, negative = inhibition, usual class: inhibitors. 8.8% of 350,000 active; note: potency is the fitted concentration of half-maximal effect; % is set by controls: 0 for no effect and ±100 for the full control effect; nearly all actives have a fitted effect of over 75% in size
#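 Chemiluminescent proximity detection of H3K9 monomethylation, read after 10 min bead incubation in the dark. Reaction: 20 nM G9a, 500 nM biotin-H3K9 peptide, 20 uM SAM cofactor, 2 h, room temperature, following 15 min enzyme-compound preincubation.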
# Lamin A splicing = modulators of lamin A splicing; Potency, µM (highest dose often 46.1 µM), inactives show top-dose ratio change, negative = inhibition, actives largely listed as inhibitors; 0.01% of 200,000 active; HeLa LMNA splicing GFP/RFP minigene ratio, 48 h; active = well fitted inhibition curve with a large enough effect in the signal ratio, with a control signal flat, not every such curve was filed as active; inconclusive = small, poorly fitted or top-dose-only effect, or effect the other way, or a change in a side signal; the % refers to the signal ratio; note: potency is the fitted concentration of half-maximal effect; % is set by controls: 0 for no effect and ±100 for the full control effect
#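 Read-out is the ratio of GFP to DsRed2 object intensity, acquired by 488 nm laser-scanning cytometry on HeLa lamin A-EGFP minigene reporter cells. Compound incubation 48 hrs at 37 °C in Opti-MEM with 2% FBS; DMSO 0.5% final.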
# JMJD2E inh = JMJD2E (human) inhibition; Potency, µM (highest dose often 57.1 µM), for the others: top-dose activity change, negative = inhibition, actives largely listed as inhibitors; JMJD2E catalytic domain, FDH-coupled NADH fluorescence (FDH is formaldehyde dehydrogenase); 1.6% of 230,000 active; B2RXH2; active = well fitted inhibition curve with a large enough effect, not every such curve was filed as active; inconclusive = small, poorly fitted or top-dose-only effect, or another doubt; inactive = no such curve, though single readings can be large or run the other way;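 note: potency is the fitted concentration of half-maximal effect; 0% = wells with enzyme and -100% = buffer wells without enzyme; nearly all actives have a fitted effect of over 50% in size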
# miR-21 FLuc = raises the signal of a miR-21 reporter | AID 2288 | 340,000 tested, under 10 active | Potency, µM (series often up to 38.3 µM), without a hit: at the highest dose reporter change, positive = more light | HeLa miR-21 FLuc reporter, luciferase, 48 h; active = well fitted rising curve with a large enough effect; inconclusive = small, poorly fitted or top-dose-only effect; inactive = no such curve, though single readings can be large or run the other way;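 further: % of control where 0% means no effect; miR-21 action dims this reporter so a rising signal means less miR-21 action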
#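 HeLa cells stably expressing CMV-driven firefly luciferase with a downstream miR-21 binding sequence, endogenously expressing miR-21, were treated with titrations (up to about 40uM final) for 48 hours at 37 degree Celsius. Luciferase luminescence was read after lysis.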
# Starred values were filed as active, the others as inactive; ? = inconclusive; . = not tested or not shown; ! = not active in a repeat; [ ] = remark or other dose. Unless noted, calls come from the whole dose curve; as a rule, active = well fitted curve in the direction sought with a large enough effect; inconclusive = small, poorly fitted or top-dose-only effect, or another doubt; inactive = no such curve, though single readings can be large; an effect the other way counts as inactive or inconclusive.
# Short forms – A = ALDH1A1 block; B = Sfp inh; C = G9a block; D = Lamin A splicing; E = JMJD2E inh; F = miR-21 FLuc
1. COc1cc2c(cc1O)C(CCc1ccc(Cl)cc1)N(C)CC2 (stereo unspecified)
  A: -5%	B: 8%	C: .	D: .	E: 0%	F: .

2. N#Cc1c(/N=C/c2c(O)n(Cc3ccco3)c(=O)[nH]c2=O)sc2c1CCCC2
  A: 28µM*	B: 79µM*	C: -16%[0.0925 µM]	D: 2%	E: ?	F: -6%

3. O=c1[nH]c(=O)n(Cc2ccco2)c(O)c1C=NCc1cccs1
  A: ?	B: 50µM*	C: -37%[59 µM]	D: 7%	E: -1%	F: -1%

4. CN(C)CCN=Cc1c(O)n(Cc2ccco2)c(=O)[nH]c1=O
  A: 0%	B: -10%	C: 6%[0.501 µM]	D: 3%[0.0737 µM]	E: 9%	F: 3%

5. CCN(CC)c1ccc(N=Cc2c(O)n(Cc3ccco3)c(=O)[nH]c2=O)cc1
  A: 10%	B: -10%	C: .	D: .	E: -19%	F: 3%

6. NC(=O)c1ccc(N=Cc2c(O)n(Cc3ccco3)c(=O)[nH]c2=O)cc1
  A: .	B: -9%	C: 40µM*	D: .	E: ?	F: 2%

7. O=c1[nH]c(=S)n(Cc2ccco2)c(O)c1C=NCc1cccs1
  A: 7.9µM*	B: -1%	C: 3.5µM*	D: 1%	E: -2%	F: -2%

8. CC(=O)O[C@H]1C[C@@H]2CCC3C(CC[C@@]4(C)[C@H]3C[C@H]([N+]3(C)CCCCC3)[C@@H]4OC(C)=O)[C@@]2(C)C[C@@H]1[N+]1(C)CCCCC1 (stereo partly specified)
  A: -7%	B: .	C: 9%[12.7 µM]	D: ?	E: 3%	F: .

9. O=c1cc(-c2ccc(O)c(O)c2)oc2c(C3O[C@H](CO)[C@@H](O)[C@H](O)[C@H]3O)c(O)cc(O)c12 (stereo partly specified)
  A: ?	B: -28%	C: 79µM*	D: 0%	E: 1µM*	F: -7%

10. CC(C)n1cnc2c(C(=O)N[C@H]3CN4CCC3CC4)cc(Cl)cc21
  A: 2%	B: -5%	C: 28%[59 µM]	D: .	E: -4%	F: .

11. Nc1ccccc1Nc1ccc([N+](=O)[O-])cc1[N+](=O)[O-]
  A: 1%	B: 5%	C: 89µM*	D: -8%	E: 1%	F: -2%

12. Nc1ccc([N+](=O)[O-])cc1N
  A: -1%	B: .	C: .	D: .	E: .	F: .

13. N[C@@H](CSC1c2ccccc2-c2ccccc21)C(=O)O
  A: 7%[13.5 µM]	B: .	C: .	D: .	E: .	F: .

14. CCOC(=O)C1(CCOc2ccccc2)CCN(Cc2cnc(SC)nc2)CC1
  A: -4%	B: 2%	C: 50µM*	D: .	E: ?	F: 0%

15. CCOC(=O)C1(CCOc2ccccc2)CCN(Cc2cccc(O)c2)CC1
  A: .	B: 31%	C: 18%	D: .	E: .	F: 17%

16. CCOC(=O)C(=O)NC1CCSC1=O (stereo unspecified)
  A: 6%	B: 23%	C: 50µM*	D: 2%	E: 5%	F: 0%

17. CC(=O)N[C@@H]1CCSC1=O
  A: 2%[20.9 µM]	B: -7%	C: 6%[21.5 µM]	D: 2%	E: -14%[25.5 µM]	F: .

18. NC(N)=NCCC[C@@H](N)C(=O)O
  A: 4%	B: ?	C: 35%[59 µM]	D: .	E: 3%	F: .

19. NC(N)=NOCC[C@H](N)C(=O)O
  A: -8%	B: -1%	C: 32µM*!	D: -12%	E: -5%	F: .

20. CCC(C)C(=O)OC1C[C@@]2(C)C(c3ccoc3)OC(=O)CC23OC2(C)OC34C(OC(=O)C(C)C)[C@]3(O)C(OC(=O)C5(C)OC5C)[C@]5(C)CC3(O)[C@](C)(C5CC(=O)OC)C14O2 (stereo partly specified)
  A: 1%	B: 17%	C: -45%[2.33 µM]	D: .	E: -7%	F: .

21. COc1ccc(NC2=NC(C)(C)CS2)cc1
  A: 8%	B: 56µM*	C: ?	D: -13%[46 µM]	E: 1%	F: -39%

22. COc1ccc(NC2=NCC(C)S2)cc1 (stereo unspecified)
  A: 20%	B: 14%	C: ?	D: ?	E: 7%	F: -18%

23. CC1(C)Cc2c(sc3nc4n(-c5ccccc5)c(=O)c(CCC(=O)O)nn4c(=O)c23)CO1
  A: .	B: 5%	C: -32%	D: .	E: 32µM*	F: -2%

24. CC(C)CC1C(=O)N2CCCC2C2(O)O[C@@](NC(=O)C3C=C4c5cccc6[nH]c(Br)c(c56)CC4N(C)C3)(C(C)C)C(=O)N12 (stereo partly specified)
  A: -4%	B: -4%	C: ?	D: .	E: ?	F: .

25. O=C1NC(=O)N(Cc2ccccc2)C(=O)/C1=C/c1cnc(-c2ccccc2)nc1
  A: 14%	B: 56µM*	C: 10µM*	D: .	E: 22µM*	F: -12%

# Taken from above:
# G9a block result of CCOC(=O)C1(CCOc2ccccc2)CCN(Cc2cnc(SC)nc2)CC1 stands at 50µM*
# Sfp inh result of COc1cc2c(cc1O)C(CCc1ccc(Cl)cc1)N(C)CC2 (stereo unspecified) stands at 8%
# miR-21 FLuc result of Nc1ccccc1Nc1ccc([N+](=O)[O-])cc1[N+](=O)[O-] stands at -2%

# The list continues:
# Short forms – A = ALDH1A1 block; B = Sfp inh; C = G9a block; D = Lamin A splicing; E = JMJD2E inh; F = miR-21 FLuc
26. CC(C)c1ccc(N2C(=O)NC(=O)/C(=C/c3cnc(-c4ccccc4)nc3)C2=O)cc1
  A: 19µM*	B: 56µM*	C: 3.5µM*	D: -7%	E: 8.9µM*	F: -15%

27. Cc1ccc(CN2C(=O)CN=C(c3ccccc3)c3ccccc32)cc1
  A: -10%	B: -5%	C: -36%[59 µM]	D: -17%	E: -5%	F: -1%

28. CSc1ncc(/C=C2/C(=O)NC(=O)N(c3ccc(C(C)C)cc3)C2=O)cn1
  A: 14µM*	B: 79µM*	C: 7.9µM*	D: 2%	E: ?	F: 1%

29. Clc1cccc(Cl)c1
  A: -9%	B: .	C: .	D: .	E: .	F: .

30. COc1ccc(-c2c3c(=O)n(C)c(=O)n(C)c3c3n2-c2ccccc2NC3c2ccccc2OC)cc1 (stereo unspecified)
  A: .	B: .	C: ?	D: .	E: .	F: -6%

31. O=C1C=C2C=CC3C[C@@]2(O1)C1CCCCN31 (stereo partly specified)
  A: -10%	B: 15%	C: -38%[2.33 µM]	D: .	E: -16%	F: .

32. CC1CCCCC1n1c(-c2cccnc2)n[nH]c1=S (stereo unspecified)
  A: -2%	B: 8%	C: 14µM*	D: .	E: -12%	F: 0%

33. CCCn1c(=O)c2[nH]c(C3CCCC3)nc2n(CCCOC(=O)c2ccc(S(=O)(=O)F)cc2)c1=O
  A: 11µM*	B: .	C: -4%[59 µM]	D: ?	E: 4%	F: .

34. CCc1ccc(N2C(=O)NC(=O)/C(=C/c3ccsc3)C2=O)cc1
  A: -5%	B: 50µM*	C: 40µM*	D: .	E: 7%	F: -3%

35. O=C1NC(=O)N(c2ccc3c(c2)OCO3)C(=O)/C1=C/c1cccs1
  A: ?	B: 11µM*	C: 11µM*	D: .	E: -26%	F: -2%

36. O=C1NC(=O)N(c2ccc3c(c2)OCO3)C(=O)/C1=C/c1ccsc1
  A: ?	B: 40µM*	C: ?	D: 8%[46 µM]	E: -1%	F: -3%

37. CCc1ccc(N2C(=O)NC(=O)C(CCc3ccncc3)(CCc3ccncc3)C2=O)cc1
  A: 7%	B: -5%	C: ?	D: -1%	E: 2%	F: -1%

38. C[C@]12CC[C@@H]3[C@H](CCC4=CC(=O)CC[C@]43C)[C@]1(O)CC[C@@]2(O)C(=O)CO
  A: 8%[13.5 µM]	B: .	C: .	D: .	E: .	F: .

39. CCCOC(=O)[C@@H]1[C@@H](C(=O)O)[C@H]2CC[C@@H]1O2
  A: -3%[13.5 µM]	B: .	C: .	D: .	E: .	F: .

40. NC1=N[C@H](O)[C@H]2C3O[C@]4(O)O[C@H](C(O)[C@@]2(N1)[C@@H]4O)C3(O)CO (stereo partly specified)
  A: -2%	B: 6%	C: 2%[59 µM]	D: .	E: .	F: .

41. O=C1NC(=O)N(c2ccccc2F)C(=O)/C1=C/c1ccc(Oc2ccc([N+](=O)[O-])cn2)cc1
  A: ?	B: 50µM*	C: 20µM*	D: 10%[46 µM]	E: ?	F: 1%

42. CCN(CC)C(=O)Cn1cc(/C=C2\C(=O)NC(=O)N(c3ccccc3F)C2=O)c2ccccc21
  A: .	B: ?	C: 22%[0.501 µM]	D: .	E: .	F: 16%

43. O=c1[nH]c(=S)n(C2CC2)c(O)c1C=Nc1ccc2c(c1)OCO2
  A: .	B: 56µM*	C: 71µM*	D: .	E: -66%	F: -11%

# Some of these compounds in order of molar mass, high to low:
# Short forms – A = ALDH1A1 block; B = Sfp inh; C = G9a block; D = Lamin A splicing; E = JMJD2E inh; F = miR-21 FLuc
42. CCN(CC)C(=O)Cn1cc(/C=C2\C(=O)NC(=O)N(c3ccccc3F)C2=O)c2ccccc21
  A: .	B: ?	C: 22%[0.501 µM]	D: .	E: .	F: 16%

41. O=C1NC(=O)N(c2ccccc2F)C(=O)/C1=C/c1ccc(Oc2ccc([N+](=O)[O-])cn2)cc1
  A: ?	B: 50µM*	C: 20µM*	D: 10%[46 µM]	E: ?	F: 1%

43. O=c1[nH]c(=S)n(C2CC2)c(O)c1C=Nc1ccc2c(c1)OCO2
  A: .	B: 56µM*	C: 71µM*	D: .	E: -66%	F: -11%
